# This is a selection; strong and weak results do not stand in their true shares. The source made the active and inactive calls.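 How the source made its calls: active means mean inhibition over four retests above 40%; inactive means the rest.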
# Protein sequences, listed by entry. Tags and fused reporters are not part of them. Lines headed by an entry give the natural chain unless they say otherwise; changes in a name come on top.
# UniProt O00574: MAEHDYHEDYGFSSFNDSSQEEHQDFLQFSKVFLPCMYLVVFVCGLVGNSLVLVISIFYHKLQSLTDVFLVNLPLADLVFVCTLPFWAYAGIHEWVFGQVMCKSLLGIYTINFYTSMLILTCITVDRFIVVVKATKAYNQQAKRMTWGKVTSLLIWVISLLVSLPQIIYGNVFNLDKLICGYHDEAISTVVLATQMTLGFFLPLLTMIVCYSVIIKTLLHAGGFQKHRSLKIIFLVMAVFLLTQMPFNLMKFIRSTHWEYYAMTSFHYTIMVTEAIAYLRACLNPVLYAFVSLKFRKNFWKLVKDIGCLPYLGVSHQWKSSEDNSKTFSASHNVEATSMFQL
# Target: C-X-C chemokine receptor type 6 (Homo sapiens) (UniProt O00574)
# Experiment: CXCR6 beta-arrestin signal inhibition by hits – cell-based, single concentration, luminescence, confirmation (AID 602409);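 further: receptor stimulated with 10 nM CXCL16 agonist; beta-galactosidase fragment complementation upon beta-arrestin recruitment to receptor; plate controls were CXCL16 plus DMSO for no effect and DMSO without CXCL16 for full effect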
# Settings: CHO-K1 CXCR6 PathHunter beta-arrestin, at 20 µM, hits give high values
row,Structure (SMILES),inhibition
1,CN(C)C(=O)c1cc([N+](=O)[O-])cc2c1-c1c(cc([N+](=O)[O-])cc1[N+](=O)[O-])C2=O,active: 44.7%
2,CSc1ccc(Nc2c([N+](=O)[O-])cc([N+](=O)[O-])cc2[N+](=O)[O-])cc1,active: 49.2%
3,O=c1c2cc([N+](=O)[O-])ccc2[nH]c2c([N+](=O)[O-])cc([N+](=O)[O-])cc12,active: 41.9%

# From PubChem BioAssay AID602409 (Sanford-Burnham Center for Chemical Genomics, 2012)
